# Reference: paper PMC3313490 (Current Cancer Drug Targets, 2011)
# Molecular target: T1, porcine liver PMPMEase (Sus scrofa, UniProt Q29550)
# T1 sequence (Q29550 19-566): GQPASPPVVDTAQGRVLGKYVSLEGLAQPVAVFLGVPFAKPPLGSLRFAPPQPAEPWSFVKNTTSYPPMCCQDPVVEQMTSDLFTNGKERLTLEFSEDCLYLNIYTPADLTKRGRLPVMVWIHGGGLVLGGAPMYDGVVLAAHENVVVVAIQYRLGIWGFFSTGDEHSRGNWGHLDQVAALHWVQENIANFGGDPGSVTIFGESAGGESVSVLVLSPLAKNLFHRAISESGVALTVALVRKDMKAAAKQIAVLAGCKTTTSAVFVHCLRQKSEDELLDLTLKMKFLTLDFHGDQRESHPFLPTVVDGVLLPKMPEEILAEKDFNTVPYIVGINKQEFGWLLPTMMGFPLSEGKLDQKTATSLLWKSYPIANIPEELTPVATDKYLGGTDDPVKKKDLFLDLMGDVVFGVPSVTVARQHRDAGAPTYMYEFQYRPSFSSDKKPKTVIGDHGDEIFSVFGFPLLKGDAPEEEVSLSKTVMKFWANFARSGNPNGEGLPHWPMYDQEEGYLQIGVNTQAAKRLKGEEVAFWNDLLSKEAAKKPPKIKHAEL
# Details: PMPMEase 82.5 μg, pre-incubation 0-30 min, 100-fold dilution, RD-PNB substrate
smiles,measurement,value
"O=S(=O)(F)Cc1ccccc1 [PMSF, phenylmethylsulfonyl fluoride, reference compound]",Kobs/[I],6 M⁻¹ s⁻¹
